Measured values from ChEMBL document CHEMBL1148395, “Synthesis, biological properties, and molecular modeling investigations of novel 3,4-diarylpyrazolines as potent and selective CB(1) cannabinoid receptor antagonists” (J Med Chem, 2004).

By UniProt entry, the sequences of proteins in these tests, tags left out.
UniProt P20272, whole entry: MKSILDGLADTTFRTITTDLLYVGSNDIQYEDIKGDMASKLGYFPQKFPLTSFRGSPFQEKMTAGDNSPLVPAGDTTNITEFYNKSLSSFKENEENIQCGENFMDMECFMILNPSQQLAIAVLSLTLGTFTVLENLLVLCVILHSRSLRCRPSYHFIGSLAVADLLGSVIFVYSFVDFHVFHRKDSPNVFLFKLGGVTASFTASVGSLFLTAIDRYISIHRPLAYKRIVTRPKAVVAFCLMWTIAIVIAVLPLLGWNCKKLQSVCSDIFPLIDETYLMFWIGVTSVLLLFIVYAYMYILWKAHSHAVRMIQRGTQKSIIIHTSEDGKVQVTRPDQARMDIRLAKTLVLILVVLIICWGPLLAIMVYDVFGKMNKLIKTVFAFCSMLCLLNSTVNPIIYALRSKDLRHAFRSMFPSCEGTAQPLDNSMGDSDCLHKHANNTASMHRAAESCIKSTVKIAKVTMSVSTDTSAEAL

Target: Cannabinoid receptor 1 (Rattus norvegicus) (UniProt P20272)
Test: In vivo effective dose to antagonise cannabinoid receptor 1 agonist (CP-55940) induced hypotension in rat upon peroral administration
Type: functional, organism-based

`Cc1c(C(=O)NN2CCCCC2)nn(-c2ccc(Cl)cc2Cl)c1-c1ccc(Cl)cc1` showed an ED50 of 3.2 mg/kg.
